In the assay the test system is regulatory T cells (Treg). The assay can be described thus: IL-2 treatment of mice overexpressing IL-27 (second hydrodynamic delivery experiment). Type of assay: in vivo, mouse. The note with it: IL-2 i.p., four injections days 13-14. Here is the method:
A second hydrodynamic delivery experiment was conducted to determine whether IL-2 treatment of mice overexpressing IL-27 could increase expression of CD25 and FoxP3 on regulatory T cells (Treg).
C57BL/6 female mice (age approximately 8 weeks) were divided into four groups of four mice each. Mice in groups 1 and 2 received empty-vector pLIVE DNA (20.micro.g in 2 ml sterile saline), and mice in groups 3 and 4 received pLIVE-IL27 DNA (20.micro.g in 2 ml sterile saline) via tail vein injection. Mice were treated by intraperitoneal injection with 100.micro.1/mouse of either diluent (groups 1 and 3) or recombinant human IL-2 (R&D Systems, Inc.; Minneapolis, Minn.; diluted to 10.micro.g/ml in PBS) (groups 2 and 4) on days 13-14 (total of four injections at 8-hour intervals). One hour after the last injection, the mice were sacrificed. Splenectomy was performed, then serum was collected by cardiac puncture. Spleen and thymus were collected for FACS analysis. Tissues were placed in individual tubes containing sterile PBS, on ice. Serum was analyzed for levels of IL-27 by ELISA.

As for “IL-2: Recombinant human IL-2 (R&D Systems, Inc.)”, the “FoxP3 or CD25 expression of splenic Treg exposed to IL-27” value is “did not increase FoxP3 or CD25 expression in response to IL-2”; the “reversal of the effects of IL-27 overexpression on Treg” value is “not able to reverse the effects of IL-27 overexpression on Treg”; the “thymic T-cells, splenic NKT cells, NK cells, B cells, macrophages, granulocytes, dendritic cells” value was “did not result in significant differences”. Moreover, the “spleen cell numbers in response to IL-2” value (mice overexpressing IL-27) is on record as “did not increase spleen cell numbers in response to IL-2”.

(Values after patent publication US20100093076A1, “SOLUBLE IL-27 RECEPTOR” (priority 2006, published 2010).)
